The entries are a selection whose mix differs from that of the whole data set. Calls of active or inactive are those of the source.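 How the source made its calls: active means B-score under library mean minus 3 SD, initial fluorescence not abnormally high, positive integrated signal ratio; inactive means the rest.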

Sequences of proteins named here, by UniProt entry; tags and fusion partners are left off. A change or cut given only in a name is not applied to a line headed by its entry.
UniProt Q61143: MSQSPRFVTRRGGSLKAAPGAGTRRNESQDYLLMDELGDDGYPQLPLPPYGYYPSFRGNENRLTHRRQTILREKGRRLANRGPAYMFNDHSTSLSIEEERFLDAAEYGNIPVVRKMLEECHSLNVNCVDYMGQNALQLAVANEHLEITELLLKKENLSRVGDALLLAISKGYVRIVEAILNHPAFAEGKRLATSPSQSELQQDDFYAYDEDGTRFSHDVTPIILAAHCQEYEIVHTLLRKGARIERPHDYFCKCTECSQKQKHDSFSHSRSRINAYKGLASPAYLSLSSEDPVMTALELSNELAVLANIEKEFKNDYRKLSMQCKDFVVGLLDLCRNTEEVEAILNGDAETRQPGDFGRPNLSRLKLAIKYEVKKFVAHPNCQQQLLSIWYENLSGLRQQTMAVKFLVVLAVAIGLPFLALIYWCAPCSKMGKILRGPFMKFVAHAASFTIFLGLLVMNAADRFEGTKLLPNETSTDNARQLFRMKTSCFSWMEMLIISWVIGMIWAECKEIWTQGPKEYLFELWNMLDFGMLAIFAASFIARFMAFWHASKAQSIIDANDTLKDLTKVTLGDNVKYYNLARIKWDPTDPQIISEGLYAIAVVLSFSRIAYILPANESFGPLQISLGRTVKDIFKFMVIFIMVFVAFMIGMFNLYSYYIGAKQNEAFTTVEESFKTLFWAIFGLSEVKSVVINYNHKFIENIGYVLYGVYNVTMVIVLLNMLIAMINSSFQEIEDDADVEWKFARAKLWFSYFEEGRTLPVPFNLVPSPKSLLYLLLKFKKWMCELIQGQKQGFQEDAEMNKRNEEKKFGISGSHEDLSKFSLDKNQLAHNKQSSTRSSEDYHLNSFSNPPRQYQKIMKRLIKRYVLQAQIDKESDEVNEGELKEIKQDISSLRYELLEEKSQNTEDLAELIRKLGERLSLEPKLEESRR

The experiment concerns the target Short transient receptor potential channel 6 (Mus musculus) (UniProt Q61143). In words: mouse TRPC6 channel inhibitors, primary screen, cell-based, HEK293, membrane potential dye (AID 2553).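 Further: B-score derived from integrated fluorescence ratio over the kinetic read; more negative B-score means stronger inhibition of depolarization.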 Particulars: ACh-evoked depolarization, at 10 µM, hits give low values.
Turning to `CN1CCCC(OC(=O)C(c2ccccc2)c2ccccc2)C1` (centres undefined), the B-score was active: -7.8. The result for `O=[N+]([O-])c1ccc(O)c(/C=N/Nc2ccc([N+](=O)[O-])cc2[N+](=O)[O-])c1` reads active: -7.02; that for `CCC1=CC2Cc3nc4ccc(Cl)cc4c(N)c3C(C1)C2` (centres undefined), active: -9.34; that for `O=C(OC1CN2CCC1CC2)C12CC3CC(CC(C3)C1)C2` (centres undefined), active: -6.46.

These data come from PubChem BioAssay AID2553 (Johns Hopkins Ion Channel Center, 2010).
